Test results from paper PMC3794980, “Identification of Conserved and HLA Promiscuous DENV3 T-Cell Epitopes” (PLoS Neglected Tropical Diseases, 2013).

Columns and labels:
Test in all cases: biochemical
Format in all cases: binding
[1] = target: DRB1*1101 (Homo sapiens, UniProt P01903+P01911, A100R/A169T/A87E/I96F/K41T/L162R/M171V/P40S/Q125H/Q178H/Q39Y/Q99D/R42S/S66Y/T262R/V115G/W38E)
[2] = target: DRB1*0101 (Homo sapiens, UniProt P01903+P01911, A100R/D57E/F55L/F60I/F76Y/I96L/L162R/M171V/P40L/Q125E/R42F/V115G/Y59C)
[3] = target: DRB1*0901 (Homo sapiens, UniProt P01903+P01911, A100R/A103E/D57H/D86V/F55Y/F60I/F76Y/I96F/K127E/L162R/M171V/P40D/Q125H/Q99R/R33Q/R42F/S133A/S66N/T210M/V115G/W38K/Y107V/Y59G/Y89S)
[4] = target: DRB1*0701 (Homo sapiens, UniProt P01903+P01911, A100R/A102G/A103Q/D57E/D86V/E43K/F76Y/K127E/L162R/M171V/P40G/Q125H/Q99D/R33Q/R42Y/R54Q/S133A/S66F/T210M/V115G/Y107V/Y59L/Y89S)
[5] = target: DRB1*0802 (Homo sapiens, UniProt P01903+P01911, A100R/A103L/A169T/F76Y/H45Y/I96F/K41T/L162R/M171V/P40S/Q125H/Q178H/Q39Y/Q99D/R218S/R42G/S66Y/V115G/W38E)
[6] = target: DRB1*1501 (Homo sapiens, UniProt P01903+P01911)
[7] = target: DRB1*1302 (Homo sapiens, UniProt P01903+P01911, A100E/A169T/K41T/L162R/M171V/P40S/Q125H/Q178H/Q39Y/Q99D/R42S/S66N/T262R/V115G/W38E/Y61H)
[8] = target: DRB1*0301 (Homo sapiens, UniProt P01903+P01911, A100K/A102G/A103R/A169T/F55Y/I96L/K41T/L162R/M171V/P40S/Q125H/Q178H/Q39Y/R42S/S66N/T106N/T262R/W38E/Y61H)
[9] = target: DRB1*0405 (Homo sapiens, UniProt P01903+P01911, A100R/A169T/D86S/F76Y/I96L/K127E/L162R/M171V/N62H/P40V/Q125Y/R42H/S133A/S149N/S66Y/V115G/V209L/W38E)
[10] = target: DRB1*0404 (Homo sapiens, UniProt P01903+P01911, A100R/A169T/F76Y/I96L/K127E/L162R/M171V/N62H/P40V/Q125Y/R42H/S133A/S149N/S66Y/V209L/W38E)

SMILES: CC[C@H](C)[C@H](NC(=O)[C@H](Cc1ccccc1)NC(=O)[C@H](CO)NC(=O)[C@H](CO)NC(=O)[C@H](CC(N)=O)NC(=O)[C@@H](N)CCC(N)=O)C(=O)N[C@H](C(=O)N[C@@H](CC(=O)O)C(=O)NCC(=O)N1CCC[C@H]1C(=O)N[C@@H](CC(N)=O)C(=O)N[C@H](C(=O)N1CCC[C@H]1C(=O)N[C@@H](CCC(=O)O)C(=O)N[C@@H](CS)C(=O)O)[C@@H](C)O)[C@@H](C)CC [NS1 129-143]
- IC50 [1]: 6260 nM
- IC50 [2]: 2570 nM
- IC50 [3]: 3580 nM
- IC50 [4]: 8580 nM
- IC50 [5]: 7660 nM
- IC50 [6]: 4390 nM
- IC50 [7]: 1770 nM

SMILES: CC[C@H](C)[C@H](NC(=O)[C@H](CC(C)C)NC(=O)[C@H](CO)NC(=O)[C@H](C)NC(=O)[C@H](CCCCN)NC(=O)[C@H](CCC(=O)O)NC(=O)[C@H](CC(C)C)NC(=O)[C@H](CCCCN)NC(=O)[C@H](Cc1c[nH]c2ccccc12)NC(=O)[C@@H](N)CO)C(=O)N[C@@H](CCC(=O)O)C(=O)N[C@H](C(=O)N[C@@H](CCCCN)C(=O)N[C@H](C(=O)N[C@@H](CS)C(=O)O)[C@@H](C)O)C(C)C [NS1 209-223]
- IC50 [8]: 2540 nM
- IC50 [4]: 376 nM
- IC50 [5]: 4120 nM
- IC50 [6]: 3500 nM
- IC50 [9]: 4410 nM
- IC50 [7]: 3780 nM

SMILES: CSCC[C@H](NC(=O)[C@H](Cc1ccc(O)cc1)NC(=O)[C@H](CCCNC(=N)N)NC(=O)[C@H](CC(C)C)NC(=O)[C@@H]1CCCN1C(=O)[C@@H]1CCCN1C(=O)[C@H](CC(C)C)NC(=O)[C@@H](NC(=O)[C@H](CS)NC(=O)[C@H](CO)NC(=O)[C@H](CCCNC(=N)N)NC(=O)[C@@H](N)CS)[C@@H](C)O)C(=O)NCC(=O)N[C@@H](CCC(=O)O)C(=O)N[C@@H](CC(=O)O)C(=O)O [NS1 313-327]
- IC50 [2]: 1980 nM
- IC50 [3]: 18300 nM
- IC50 [4]: 13700 nM
- IC50 [5]: 5240 nM
- IC50 [6]: 1870 nM
- IC50 [7]: 16400 nM

SMILES: CC[C@H](C)[C@H](NC(=O)[C@H](CO)NC(=O)[C@H](C)N)C(=O)N[C@@H](C)C(=O)N[C@@H](C)C(=O)N[C@@H](CCCNC(=N)N)C(=O)NCC(=O)N[C@@H](Cc1ccc(O)cc1)C(=O)N[C@H](C(=O)N[C@@H](CO)C(=O)N[C@H](C(=O)N[C@@H](CCCNC(=N)N)C(=O)N[C@H](C(=O)NCC(=O)N[C@@H](CCSC)C(=O)O)C(C)C)[C@@H](C)O)[C@@H](C)CC [NS3 293-307]
- IC50 [8]: 12100 nM
- IC50 [10]: 1070 nM
- IC50 [5]: 8130 nM

SMILES: CC[C@H](C)[C@H](NC(=O)[C@@H](NC(=O)[C@H](CCCCN)NC(=O)[C@@H](N)CCCCN)C(C)C)C(=O)N[C@@H](CCC(N)=O)C(=O)N[C@@H](CC(C)C)C(=O)N[C@@H](CO)C(=O)N[C@@H](CCCNC(=N)N)C(=O)N[C@@H](CCCCN)C(=O)N[C@H](C(=O)N[C@@H](Cc1ccccc1)C(=O)N[C@@H](CC(=O)O)C(=O)N[C@H](C(=O)N[C@@H](CCC(=O)O)C(=O)N[C@@H](Cc1ccc(O)cc1)C(=O)O)[C@@H](C)O)[C@@H](C)O [NS3 381-395]
- IC50 [10]: 16300 nM
- IC50 [4]: 5390 nM
- IC50 [5]: 1900 nM
- IC50 [6]: 2170 nM
- IC50 [7]: 2510 nM

SMILES: CC[C@H](C)[C@H](NC(=O)CNC(=O)[C@H](CO)NC(=O)[C@H](CCCCN)NC(=O)[C@H](CCCCN)NC(=O)[C@H](Cc1ccc(O)cc1)NC(=O)[C@H](CC(C)C)NC(=O)[C@H](CC(=O)O)NC(=O)[C@H](Cc1ccccc1)NC(=O)[C@H](CCC(=O)O)NC(=O)[C@@H](N)CCCCN)C(=O)N[C@H](C(=O)N[C@@H](CCC(=O)O)C(=O)N[C@H](C(=O)N[C@@H](CC(=O)O)C(=O)N[C@@H](CCCNC(=N)N)C(=O)N[C@H](C(=O)O)[C@@H](C)O)C(C)C)[C@@H](C)O [NS5 23-39]
- IC50 [8]: 3690 nM
- IC50 [1]: 2480 nM
- IC50 [2]: 1870 nM
- IC50 [3]: 1760 nM
- IC50 [6]: 2540 nM
- IC50 [9]: 1520 nM

SMILES: CC[C@H](C)[C@H](NC(=O)[C@H](CS)NC(=O)[C@H](Cc1ccccc1)NC(=O)[C@H](CCC(N)=O)NC(=O)[C@H](CC(N)=O)NC(=O)[C@H](CC(N)=O)NC(=O)[C@H](CCCCN)NC(=O)[C@H](CC(C)C)NC(=O)[C@H](Cc1c[nH]c2ccccc12)NC(=O)[C@@H]1CCCN1C(=O)[C@H](CCC(=O)O)NC(=O)[C@@H](NC(=O)[C@H](CCSC)NC(=O)[C@H](CCCCN)NC(=O)[C@@H](N)CC(C)C)C(C)C)C(=O)N[C@@H](CCCCN)C(=O)N[C@H](C(=O)O)C(C)C [NS5 165-181]
- IC50 [8]: 2940 nM
- IC50 [2]: 410 nM
- IC50 [9]: 8480 nM

SMILES: CC[C@H](C)[C@H](NC(=O)[C@H](CS)NC(=O)[C@H](Cc1ccccc1)NC(=O)[C@H](CCC(N)=O)NC(=O)[C@@H](N)CC(N)=O)C(=O)N[C@@H](CCCCN)C(=O)N[C@H](C(=O)N[C@@H](CC(C)C)C(=O)N[C@@H](CC(N)=O)C(=O)N1CCC[C@H]1C(=O)N[C@@H](Cc1ccc(O)cc1)C(=O)N[C@@H](CCSC)C(=O)N1CCC[C@H]1C(=O)N[C@H](C(=O)N[C@H](C(=O)N[C@H](C(=O)N[C@@H](CCC(=O)O)C(=O)O)[C@@H](C)CC)C(C)C)[C@@H](C)O)C(C)C [NS5 175-191]
- IC50 [8]: 2080 nM
- IC50 [1]: 6170 nM
- IC50 [3]: 5870 nM
- IC50 [4]: 6850 nM
- IC50 [5]: 16100 nM
- IC50 [7]: 8230 nM

SMILES: CSCC[C@H](NC(=O)[C@H](CCSC)NC(=O)[C@H](CC(N)=O)NC(=O)[C@H](Cc1ccc(O)cc1)NC(=O)[C@@H](NC(=O)[C@H](CS)NC(=O)[C@H](CO)NC(=O)CN)C(C)C)C(=O)NCC(=O)N[C@@H](CCCCN)C(=O)N[C@@H](CCCNC(=N)N)C(=O)N[C@@H](CCC(=O)O)C(=O)N[C@@H](CCCCN)C(=O)N[C@@H](CCCCN)C(=O)N[C@@H](CC(C)C)C(=O)NCC(=O)N[C@@H](CCC(=O)O)C(=O)O [NS5 447-463]
- IC50 [8]: 1260 nM
- IC50 [3]: 2610 nM
- IC50 [4]: 2870 nM
- IC50 [5]: 412 nM
- IC50 [6]: 1250 nM
- IC50 [9]: 1370 nM
- IC50 [7]: 5450 nM

SMILES: CC[C@H](C)[C@H](NC(=O)[C@H](Cc1ccc(O)cc1)NC(=O)CNC(=O)[C@H](CC(C)C)NC(=O)[C@H](CCCCN)NC(=O)[C@H](Cc1c[nH]cn1)NC(=O)[C@@H](N)CC(C)C)C(=O)N[C@@H](CC(C)C)C(=O)N[C@@H](CCCNC(=N)N)C(=O)N[C@@H](CC(=O)O)C(=O)N[C@H](C(=O)N[C@@H](CO)C(=O)N[C@@H](CCCCN)C(=O)N[C@H](C(=O)N1CCC[C@H]1C(=O)NCC(=O)NCC(=O)O)[C@@H](C)CC)[C@@H](C)CC [NS5 511-527]
- IC50 [10]: 2270 nM
- IC50 [3]: 3880 nM
- IC50 [4]: 705 nM

SMILES: CC(C)C[C@H](N)C(=O)N[C@H](C(=O)N[C@@H](Cc1ccc(O)cc1)C(=O)N[C@@H](CCC(N)=O)C(=O)N[C@@H](CC(N)=O)C(=O)N[C@@H](CCCCN)C(=O)N[C@H](C(=O)N[C@H](C(=O)N[C@@H](CCCCN)C(=O)N[C@H](C(=O)N[C@@H](CCC(N)=O)C(=O)N[C@@H](CCCNC(=N)N)C(=O)N1CCC[C@H]1C(=O)N[C@H](C(=O)N1CCC[C@H]1C(=O)N[C@@H](CCCCN)C(=O)NCC(=O)O)[C@@H](C)O)C(C)C)C(C)C)C(C)C)[C@@H](C)O [NS5 570-586]
- IC50 [8]: 2560 nM
- IC50 [10]: 1240 nM
- IC50 [3]: 1340 nM
- IC50 [5]: 1240 nM

SMILES: CC[C@H](C)[C@H](NC(=O)[C@H](CC(C)C)NC(=O)[C@H](CCC(=O)O)NC(=O)[C@H](Cc1c[nH]cn1)NC(=O)[C@H](Cc1ccccc1)NC(=O)[C@H](Cc1c[nH]cn1)NC(=O)[C@H](Cc1c[nH]cn1)NC(=O)[C@H](CO)NC(=O)[C@H](CS)NC(=O)[C@H](Cc1ccccc1)NC(=O)[C@@H]1CCCN1C(=O)[C@@H](NC(=O)[C@H](CCC(N)=O)NC(=O)[C@H](CCC(N)=O)NC(=O)[C@H](Cc1c[nH]c2ccccc12)NC(=O)[C@@H](N)CC(=O)O)C(C)C)C(=O)N[C@@H](CCSC)C(=O)O [NS5 702-718]
- IC50 [8]: 3170 nM
- IC50 [3]: 1400 nM
- IC50 [6]: 1290 nM
- IC50 [9]: 1930 nM
- IC50 [7]: 4020 nM
